One may read the Kd as the constant that tells how readily two partners part at equilibrium. Higher therefore signals weaker binding.

Protein sequences, listed by entry. Tags and fused reporters are not part of them. Residues count along the entry.
UniProt P08637, 17-208 limits assumed: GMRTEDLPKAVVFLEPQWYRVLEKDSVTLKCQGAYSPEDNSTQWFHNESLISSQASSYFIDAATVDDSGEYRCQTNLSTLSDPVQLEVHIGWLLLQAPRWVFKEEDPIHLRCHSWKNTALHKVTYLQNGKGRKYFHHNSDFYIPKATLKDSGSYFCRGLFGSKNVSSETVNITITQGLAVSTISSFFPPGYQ
UniProt P08637, 17-208 F176V: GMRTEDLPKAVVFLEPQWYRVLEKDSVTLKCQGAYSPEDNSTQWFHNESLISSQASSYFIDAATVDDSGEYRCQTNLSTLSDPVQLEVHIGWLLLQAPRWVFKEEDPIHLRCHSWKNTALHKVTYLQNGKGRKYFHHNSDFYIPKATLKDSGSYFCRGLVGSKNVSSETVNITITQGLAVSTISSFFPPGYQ

We go through twelve compounds from US20240108738A1, “BICYCLIC PEPTIDE LIGANDS SPECIFIC FOR NK CELLS” (Bicycle Tx Limited, priority 2021, published 2024).

In one experiment the target is CD16a (F Variant) (Homo sapiens, UniProt P08637). In words: FcγRIII (CD16a) SPR (Method A and/or Method B), F variant. The class given is binding.
The target in a further experiment is CD16a (V Variant) (Homo sapiens, UniProt P08637, F176V). In words: FcγRIII (CD16a) SPR (Method A and/or Method B), V variant. The class given is binding.

In the case of `CC(C)C[C@@H]1NC(=O)CNC(=O)[C@@H]2CCCN2C(=O)[C@@H](NC(=O)[C@H](C)N)CSCc2nc3nc(n2)CSC[C@H](NC(=O)[C@@H]2CCCN2C(=O)CNC(=O)[C@H](CC(C)C)NC(=O)[C@H](CCC(=O)O)NC(=O)[C@H](CCC(=O)O)NC1=O)C(=O)N[C@@H](CO)C(=O)N[C@@H](CC(=O)O)C(=O)N[C@@H](CC(C)C)C(=O)N[C@H](C(=O)N[C@@H](C)C(N)=O)CSC3` [BCY16498, A-(SEQ ID NO: 245)-A], the Kd worked out at 2360 nM at CD16a (F Variant) and 2810 nM at CD16a (V Variant).

For `CC(C)C[C@@H]1NC(=O)CNC(=O)[C@H](C(C)C)NC(=O)[C@@H](NC(=O)[C@H](C)N)CSCc2nc3nc(n2)CSC[C@H](NC(=O)[C@@H]2CCCN2C(=O)CNC(=O)[C@H](CC(C)C)NC(=O)[C@H](CCC(=O)O)NC(=O)[C@H](CC2CCC2)NC1=O)C(=O)N[C@@H](CO)C(=O)N[C@@H](CC(=O)O)C(=O)N[C@@H](CC(C)C)C(=O)N[C@H](C(=O)N[C@@H](C)C(N)=O)CSC3` [BCY16509, A-(SEQ ID NO: 254)-A], at CD16a (F Variant), the affinity, expressed as Kd, was 2820 nM. With `CCCC[C@@H]1NC(=O)[C@H](CC(C)C)NC(=O)CNC(=O)[C@H](C(C)C)NC(=O)[C@@H](NC(=O)[C@H](C)N)CSCc2nc3nc(n2)CSC[C@H](NC(=O)[C@@H]2CCCN2C(=O)CNC(=O)[C@H](CC(C)C)NC(=O)[C@H](CCC(=O)O)NC1=O)C(=O)N[C@@H](CO)C(=O)N[C@@H](CC(=O)O)C(=O)N[C@@H](CC(C)C)C(=O)N[C@H](C(=O)N[C@@H](C)C(N)=O)CSC3` [BCY16511, A-(SEQ ID NO: 256)-A], the Kd at CD16a (F Variant) is 4020 nM; at CD16a (V Variant), no less than 5000 nM. With `CC[C@H](C)[C@@H]1NC(=O)[C@H](Cc2c[nH]c3ccccc23)NC(=O)[C@H](CCSC)NC(=O)[C@@H](NC(=O)[C@H](C)N)CSCc2nc3nc(n2)CSC[C@H](NC(=O)[C@@H]2CCCN2C(=O)[C@H](CC(=O)O)NC(=O)[C@H](CO)NC(=O)[C@H](CCCNC(=N)N)NC1=O)C(=O)NCC(=O)N[C@@H](C)C(=O)N[C@@H](Cc1c[nH]c2ccccc12)C(=O)N[C@H](C(=O)N[C@@H](C)C(N)=O)CSC3` [BCY19032, A-(SEQ ID NO: 181)-A], the Kd at CD16a (F Variant) turned out to be 10500 nM; at CD16a (V Variant), 4640 nM.

Turning to `CC[C@H](C)[C@@H]1NC(=O)[C@H](Cc2c[nH]cn2)NC(=O)[C@H](Cc2c[nH]c3ccccc23)NC(=O)[C@H](CCC(=O)O)NC(=O)[C@@H](NC(=O)[C@H](C)N)CSCc2nc3nc(n2)CSC[C@H](NC(=O)[C@@H]2CCCN2C(=O)[C@H](CCC(=O)O)NC(=O)[C@H](CO)NC1=O)C(=O)NCC(=O)N[C@@H](C)C(=O)N[C@@H](Cc1c[nH]c2ccccc12)C(=O)N[C@H](C(=O)N[C@@H](C)C(N)=O)CSC3` [BCY19034, A-(SEQ ID NO: 183)-A], the values for the dissociation constant Kd at CD16a (F Variant) and at CD16a (V Variant) were 1810 nM and 1080 nM, respectively.

Take `CC[C@H](C)[C@@H]1NC(=O)[C@H](Cc2c[nH]c3ccccc23)NC(=O)[C@H](CCSC)NC(=O)[C@@H](NC(=O)[C@H](C)N)CSCc2nc3nc(n2)CSC[C@H](NC(=O)[C@@H]2CCCN2C(=O)[C@H](CC(=O)O)NC(=O)[C@H](CO)NC(=O)[C@H](CCCNC(=N)N)NC1=O)C(=O)NCC(=O)N[C@@H](C)C(=O)N[C@@H](Cc1c[nH]c2ccccc12)C(=O)N[C@H](C(=O)N[C@@H](C)C(=O)NCC(=O)N[C@@H](C)C(=O)N[C@@H](C)C(=O)N[C@@H](C)C(=O)N[C@@H](CCC(=O)O)C(N)=O)CSC3` [BCY19038, A-(SEQ ID NO: 187)-AGAAAE]: the Kd is greater than 10000 nM at CD16a (F Variant) and 6850 nM at CD16a (V Variant).

As for `CC(C)[C@@H]1NC(=O)[C@H](CO)NC(=O)[C@H](Cc2c[nH]c3ccccc23)NC(=O)[C@H](CCCNC(=N)N)NC(=O)[C@@H](NC(=O)[C@H](C)N)CSCc2nc3nc(n2)CSC[C@H](NC(=O)[C@@H]2CCCN2C(=O)[C@H](CC(=O)O)NC(=O)[C@H](CCC(=O)O)NC1=O)C(=O)NCC(=O)N[C@@H](C)C(=O)N[C@@H](Cc1c[nH]c2ccccc12)C(=O)N[C@H](C(=O)N[C@@H](C)C(=O)NCC(=O)N[C@@H](C)C(=O)N[C@@H](C)C(=O)N[C@@H](C)C(=O)N[C@@H](CCC(=O)O)C(N)=O)CSC3` [BCY19040, A-(SEQ ID NO: 61)-AGAAAE], the Kd on CD16a (F Variant) was 1600 nM; on CD16a (V Variant), 1240 nM.

Turning to `CC[C@H](C)[C@@H]1NC(=O)[C@H](Cc2c[nH]cn2)NC(=O)[C@H](Cc2c[nH]c3ccccc23)NC(=O)[C@H](CCC(=O)O)NC(=O)[C@@H](NC(=O)[C@H](C)N)CSCc2nc3nc(n2)CSC[C@H](NC(=O)[C@@H]2CCCN2C(=O)[C@H](CCC(=O)O)NC(=O)[C@H](CO)NC1=O)C(=O)NCC(=O)N[C@@H](C)C(=O)N[C@@H](Cc1c[nH]c2ccccc12)C(=O)N[C@H](C(=O)N[C@@H](C)C(=O)NCC(=O)N[C@@H](C)C(=O)N[C@@H](C)C(=O)N[C@@H](C)C(=O)N[C@@H](CCC(=O)O)C(N)=O)CSC3` [BCY19041, A-(SEQ ID NO: 189)-AGAAAE], the Kd at CD16a (F Variant) stood at 1820 nM; on CD16a (V Variant) it was 1310 nM. Turning to `Cc1ccc2c(C[C@@H]3NC(=O)[C@H](CCCNC(=N)N)NC(=O)[C@@H](NC(=O)[C@H](C)N)CSCc4nc5nc(n4)CSC[C@H](NC(=O)[C@@H]4CCCN4C(=O)[C@H](CC(=O)O)NC(=O)[C@H](CCC(=O)O)NC(=O)[C@H](C(C)C)NC(=O)[C@H](CO)NC3=O)C(=O)NCC(=O)N[C@@H](C)C(=O)N[C@@H](Cc3c[nH]c4ccccc34)C(=O)N[C@H](C(=O)N[C@@H](C)C(N)=O)CSC5)c[nH]c2c1` [BCY19046, A-(SEQ ID NO: 194)-A], the equilibrium dissociation constant (Kd) on CD16a (F Variant) turned out to be 1600 nM. `CC(C)[C@@H]1NC(=O)[C@H](CO)NC(=O)[C@H](Cc2c[nH]c3cc(Cl)ccc23)NC(=O)[C@H](CCCNC(=N)N)NC(=O)[C@@H](NC(=O)[C@H](C)N)CSCc2nc3nc(n2)CSC[C@H](NC(=O)[C@@H]2CCCN2C(=O)[C@H](CC(=O)O)NC(=O)[C@H](CCC(=O)O)NC1=O)C(=O)NCC(=O)N[C@@H](C)C(=O)N[C@@H](Cc1c[nH]c2ccccc12)C(=O)N[C@H](C(=O)N[C@@H](C)C(N)=O)CSC3` [BCY19050, A-(SEQ ID NO: 197)-A] returned a Kd at CD16a (F Variant) of 2150 nM. For `COc1cccc2[nH]cc(C[C@@H]3NC(=O)[C@H](C)NC(=O)CNC(=O)[C@@H]4CSCc5nc(nc(n5)CSC[C@@H](C(=O)N[C@@H](C)C(N)=O)NC3=O)CSC[C@H](NC(=O)[C@H](C)N)C(=O)N[C@@H](CCCNC(=N)N)C(=O)N[C@@H](Cc3c[nH]c5ccccc35)C(=O)N[C@@H](CO)C(=O)N[C@@H](C(C)C)C(=O)N[C@@H](CCC(=O)O)C(=O)N[C@@H](CC(=O)O)C(=O)N3CCC[C@H]3C(=O)N4)c12` [BCY19063, A-(SEQ ID NO: 203)-A], the Kd on CD16a (F Variant) is greater than 10000 nM. Same read-out and setting: as for `C[C@H](N)C(=O)N[C@H]1CSCc2nc3nc(n2)CSC[C@H](NC(=O)[C@@H]2CCCN2C(=O)[C@H](CCCC(=O)O)NC(=O)[C@H](CO)NC(=O)[C@H](Cc2ccccc2)NC(=O)[C@H](Cc2c[nH]cn2)NC(=O)[C@H](Cc2c[nH]c4ccccc24)NC(=O)[C@H](CCCNC(=N)N)NC1=O)C(=O)NCC(=O)N[C@@H](C)C(=O)N[C@@H](Cc1c[nH]c2ccccc12)C(=O)N[C@H](C(=O)N[C@@H](C)C(N)=O)CSC3` [BCY20390, A-(SEQ ID NO: 234)-A], the figure is greater than 10000 nM.
